Data reported in US8993614B2, “Substituted pyrrolidine-2-carboxamides” (Hoffmann-La Roche Inc., priority 2012, dated 2015).

Experiment: plasma pharmacokinetics after iv bolus of Compound A, LC-MS/MS
[1] = Compound A (prodrug) in plasma, 4.37 mg/kg Compound A iv bolus, mean, N=2

4-{[(2R,3S,4R,5S)-3-(3-Chloro-2-fluoro-phenyl)-4-(4-chloro-2-fluoro-phenyl)-4-cyano-5-(2,2-dimethyl-propyl)-pyrrolidine-2-carbonyl]-amino}-3-methoxy-benzoic acid 1-mPEG-carbonyloxy-ethyl ester (average MW, ˜2695) [Example 37]
Cmax (Compound A (prodrug) in plasma, 4.37 mg/kg Compound A iv bolus (1 mg/kg active parent), mean, N=2): 142 µg/mL
AUC(0−inf) [1]: 108 µg·h/mL
AUC(0−tlast) [1]: 108 µg·h/mL
apparent terminal half-life t½ [1]: 2.59 h
Vss (Compound A (prodrug), 4.37 mg/kg Compound A iv bolus, mean, N=2): 0.0235 L/kg
conversion to active drug (after iv bolus of prodrug): Significant conversion
recovered into urine (after iv bolus of prodrug): only very little
